Only a part is listed here, and it is no random draw. Results filed as inconclusive are left out. Activity calls are given as the source filed them. Calls follow the shape of the dose curve; as a rule, active = well fitted cell-killing curve with a large enough effect; inconclusive = small, poorly fitted or top-dose-only effect, or effect the other way; inactive = flat fitted curve, though single readings scatter.
Assay: qHTS assay for MDR1-selective chemotherapeutics: Primary screen using the drug-selected MDR subline cells KB-V1; also: nearly all actives have a fitted effect of over 60% in size
Conditions: KB-V1 MDR cells viability, CellTiter-Glo, 72 h; at 46.1 µM (top of the series)
Description: A prime difficulty in effectively treating cancer is the development of cellular resistance to multiple structurally unrelated anticancer drugs, a phenomenon known as multidrug resistance (MDR). […] Numerous strategies to overcome P-gp-mediated MDR have been explored, including the design of drugs that evade recognition and efflux, and development of inhibitors to block efflux and restore drug accumulation. […] An alternative approach is to exploit resistance by identifying drugs that target MDR cells over the non-resistant parental cells from which they were selected. […]
Our goal is to identify compounds that selectively kill P-gp-expressing MDR cells. […] This assay will be utilized to conduct a quantitative high-throughput screen (qHTS) in collaboration with the NIH Chemical Genomics Center to identify selective agents, and probe hits arising from the screen will be validated using secondary assays and characterized through a well-established follow-up research program. […]
Briefly, 5 microL of media containing either KB-V1 cells (columns 1-2, 4-48) are dispensed into Greiner white, treated solid-bottom 1536-well assay plates (media-only control is added to column 3). […] CellTiter-Glo (2.5 µL/well) is then added, and the plates are read in a ViewLux reader (Perkin-Elmer, clear luminescence filter, 1 second exposure, 1x binning) following a 10 minute incubation. […]
% is scaled to controls: 0 for no effect and ±100 for the full control effect.

SMILES	activity change, negative = cytotoxicity
CCC(=O)N(c1ccccc1)C1(COC)CCN(CCc2cccs2)CC1	inactive: -19.2%

— PubChem BioAssay AID1347076 (National Center for Advancing Translational Sciences (NCATS), 2019)
